Only a part is listed here, and it is no random draw. Results filed as inconclusive are left out. Some structures show a salt or complex split into parts, the way the source records it. Activity calls are given as the source filed them. Calls come from the whole dose curve; as a rule, active = well fitted inhibition curve with a large enough effect; inconclusive = small, poorly fitted or top-dose-only effect, or effect the other way; inactive = flat fitted curve, though single readings scatter.
Experiment: Nrf2 qHTS screen for inhibitors; note: nearly all actives have a fitted effect of over 60% in size
Conditions: A549 ARE-Fluc reporter, luciferase luminescence, 18-24 h; at 46 µM (top of the series)
% is set by controls: 0 for no effect and ±100 for the full control effect.

Structure (SMILES) | activity change, negative = inhibition
CCC(CO)(C(=O)OC1CN2CCC1CC2)c1ccccc1 (stereo not drawn) | inactive: 1.56%
COc1cc(OC)cc(C(=O)NCC2(N3CCOCC3)CCCCC2)c1 | inactive: -3.64%
COc1cc(C(=O)NCC2(N3CCOCC3)CCCCC2)cc(OC)c1OC | inactive: 10.6%
CN1CCC(Nc2ccc(Cl)cc2)CC1 | inactive: -11.7%
CCOc1ncccc1C(=O)NCC1(N2CCOCC2)CCCCC1 | inactive: -9.7%
CN1CCC(Nc2ccc(F)c(Cl)c2)CC1 | inactive: 7.87%
CCCOc1ccc(C(=O)NCC2(N(C)C)CCCCC2)cc1 | inactive: 14.2%
CC(C)(C)OC(=O)N1CCC(Nc2ccccc2)CC1 | inactive: -32%
O=C(O)C1(Nc2ccccc2)CCN(Cc2ccccc2)CC1 | inactive: 9.32%
Cc1ccccc1NC1(C#N)CCN(Cc2ccccc2)CC1 | inactive: 9.51%
CCN1CCC(Nc2cccc(F)c2)CC1 | inactive: 0.473%
O=C(NCC1(N2CCCCC2)CCCCC1)c1ccco1 | inactive: 14.4%
CC(C)(C)c1ccc(C(=O)NCC2(N3CCOCC3)CCCCC2)cc1 | inactive: 10.9%
CN(C)c1ccc(C(=O)NCC2(N3CCCCC3)CCCCC2)cc1 | inactive: 1.36%
Cn1c(=O)[nH]cc(N(CCCl)CCCl)c1=O | inactive: -25.6%
Cc1ccccc1C(=O)NCC1(N(C)C)CCCCC1 | inactive: 0.14%
COc1cc(OC)cc(C(=O)NCC2(N3CCCCC3)CCCCC2)c1 | inactive: 3.18%
CN(C)C1(CNC(=O)c2ccc(C(C)(C)C)cc2)CCCCC1 | inactive: 7.76%
CC(=O)N(c1ccccc1)C1CCNCC1 | inactive: -0.745%
Cc1ccc(NC2(C#N)CCN(Cc3ccccc3)CC2)cc1 | inactive: 3.53%
Cc1ccc(C(=O)NCC2(N3CCCCC3)CCCCC2)o1 | inactive: 2.08%

Structure (SMILES) | activity change, negative = inhibition
c1ccc(CN2CCC(Nc3ccccc3)CC2)cc1 | inactive: -6.24%
O=C(NCC1(N2CCOCC2)CCCCC1)c1ccccc1 | inactive: -1.58%
CCCN1CCC(Nc2cc(OC)cc(OC)c2)CC1 | inactive: 12.3%
CN(C)C1(CNC(=O)c2cccc(C#N)c2)CCCCC1 | inactive: 9.38%
CC(C)(C)OC(=O)N1CCC(N(C(=O)c2ccccc2)c2ccc(Cl)cc2)CC1 | inactive: -16.9%
O=C(NCC1(N2CCOCC2)CCCCC1)c1ccccc1[N+](=O)[O-] | inactive: 1.24%
N#Cc1ccc(C(=O)NCC2(N3CCCCC3)CCCCC2)cc1 | inactive: 1.96%
CCOC(=O)C(CC)C1=NC(C)(C)Cc2ccccc21.O=[N+]([O-])c1cc([N+](=O)[O-])c(O)c([N+](=O)[O-])c1 (stereo not drawn) | inactive: -17.9%
N/C(=N\O)c1c(N)no[n+]1[O-] | inactive: 16.5%
CCOC(=O)N1CCC(Nc2ccc(C)cc2)CC1 | inactive: -18.9%
CCc1cc(C(=O)NCC2(N3CCCCC3)CCCCC2)sc1C | inactive: 18.4%
O=C(OC1CN2CCC1CC2)C1c2ccccc2C=Cc2ccccc21 (stereo not drawn) | inactive: 5.57%
O=C(O)c1cccc(Nc2c([N+](=O)[O-])cc([N+](=O)[O-])cc2[N+](=O)[O-])c1 | inactive: 6.03%
O=C(NCC1(N2CCOCC2)CCCCC1)c1cc(Br)ccc1Cl | inactive: -0.544%
COc1cc(C(=O)NCC2(N3CCOCC3)CCCCC2)cc(OC)c1C | inactive: -9.52%
COc1ccc(C(=O)NCC2(N3CCOCC3)CCCCC2)cc1OC | inactive: -0.785%
COc1ccc2c(c1O)-c1c(O)c(OC)cc3c1[C@H](C2)[N+](C)(C)CC3.O=[N+]([O-])c1cc([N+](=O)[O-])c([O-])c([N+](=O)[O-])c1[O-] | inactive: 0.169%
O=C(NCC1(N2CCCCC2)CCCCC1)c1cncc(Br)c1 | inactive: 7.29%
O=C(OC1CN2CCC1CC2)c1ccc([N+](=O)[O-])cc1 (stereo not drawn) | inactive: -5.51%
CCCCOc1ccccc1C(=O)NCC1(N2CCOCC2)CCCCC1 | inactive: -1.51%
O=C(NCC1(N2CCOCC2)CCCCC1)c1ccccc1Br | inactive: 0.0137%

Structure (SMILES) | activity change, negative = inhibition
CCCOc1ccc(C(=O)NCC2(N(C)C)CCCCC2)cc1OC | inactive: -13.6%
CN(C)c1cccc(C(=O)NCC2(N3CCCCC3)CCCCC2)c1 | inactive: 1.28%
O=[N+]([O-])c1cc([N+](=O)[O-])c(OC2CCCCC2O)c([N+](=O)[O-])c1 (stereo not drawn) | inactive: -27%
COc1cc(OC)c(C(=O)NCC2(N(C)C)CCCCC2)cc1OC | inactive: 14%
O=C(NCC1(N2CCOCC2)CCCCC1)c1cc(F)c(F)cc1Cl | inactive: 6.14%
O=C(NCC1(N2CCCCC2)CCCCC1)c1cccc(C(F)(F)F)c1 | inactive: 8.18%
CCCOc1cccc(C(=O)NCC2(N3CCOCC3)CCCCC2)c1 | inactive: 1.71%
O=[N+]([O-])c1cc([N+](=O)[O-])c(NCC2CCS(=O)(=O)C2)c([N+](=O)[O-])c1 (stereo not drawn) | inactive: -2.25%
CC(C)c1ccc(C(=O)NCC2(N3CCOCC3)CCCCC2)cc1 | inactive: 20%
CN1CCN(CCOC(=O)C(O)(c2ccccc2)c2ccccc2)CC1 | inactive: 4.59%
O=C(NCC1(N2CCOCC2)CCCCC1)c1cc(=O)[nH]c2ccccc12 | inactive: 16.5%
COc1cc(C(=O)NCC2(N3CCCCC3)CCCCC2)ccc1OC(F)F | inactive: 11.7%
O=C(NCC1(N2CCCCC2)CCCCC1)c1ccc(OC(F)F)cc1 | inactive: -10.5%
CCOc1ccc(C(=O)NCC2(N3CCOCC3)CCCCC2)cc1 | inactive: 16.7%
O=C(NCC1(N2CCCCC2)CCCCC1)c1cccc([N+](=O)[O-])c1 | inactive: -1.8%
CSc1ccc(C(=O)NCC2(N3CCOCC3)CCCCC2)cc1 | inactive: 10.1%
CCN1CCC(Nc2ccc(Cl)cc2)CC1 | inactive: -1.61%
N#CC1(Nc2ccccc2)CCN(CCc2ccccc2)CC1 | inactive: 11.4%
CCOC(=O)N1CCC(Nc2cccc(C)c2)CC1 | inactive: -8.58%
CCOc1ccc(C)cc1CN(CCCl)CCCl | inactive: -14%
O=C(NCC1(N2CCOCC2)CCCCC1)c1ccc(Cl)cc1 | inactive: 0.736%

Structure (SMILES) | activity change, negative = inhibition
O=C1CCN(Cc2ccccc2)CC1 | inactive: -3.24%
O=P1(N(CCCl)CCCl)SCCCS1 | inactive: -12.9%
O=C(NCC1(N2CCCCC2)CCCCC1)c1ccc(F)cc1 | inactive: -1.99%
CCOC(=O)N1CCC(Nc2ccc(F)cc2)CC1 | inactive: -29.1%
COc1ccc(NC2CCN(CCc3ccccc3)CC2)c(OC)c1 | inactive: 10.7%
COc1ccccc1C(=O)NCC1(N2CCOCC2)CCCCC1 | inactive: -5.89%
O=C(NCC1(N2CCOCC2)CCCCC1)c1cc2ccccc2o1 | inactive: 26%
O=C(NCC1(N2CCCCC2)CCCCC1)c1ccc(Cl)nc1 | inactive: 5.7%
CCOC(=O)N1CCC(Nc2ccc(OC)cc2)CC1 | inactive: -0.285%
O=C(NCC1(N2CCCCC2)CCCCC1)c1ccc(Cl)s1 | inactive: 17.9%
N#CC1(Nc2ccccc2)CCN(Cc2ccccc2)CC1 | inactive: -1.31%
O=C(OC1CN2CCC1CC2)C1c2ccccc2Oc2ccccc21 (stereo not drawn) | inactive: 7.67%
COc1ccc(Cl)cc1C(=O)NCC1(N2CCOCC2)CCCCC1 | inactive: 9.04%
O=C1C(O)=C([N+](=O)[O-])C(=O)C(O)=C1[N+](=O)[O-] | inactive: -3.31%
O=C(NCC1(N2CCCCC2)CCCCC1)c1ccc(=O)[nH]c1 | inactive: 16%
O=C(NCC1(N2CCCCC2)CCCCC1)c1cccs1 | inactive: -4.36%
COc1ccc(C(=O)NCC2(N3CCCCC3)CCCCC2)cc1 | inactive: -5.16%
CC(C)(C)OC(=O)N1CCC(N(C(=O)c2ccccc2)c2ccc(F)cc2)CC1 | inactive: -11.3%
CSc1ccccc1C(=O)NCC1(N2CCCCC2)CCCCC1 | inactive: 3.32%
Cc1cccc(NC2(C#N)CCN(Cc3ccccc3)CC2)c1 | inactive: -0.897%

— PubChem BioAssay AID504444 (National Center for Advancing Translational Sciences (NCATS), 2011)
